# Target: Histamine H1 receptor (Cavia porcellus, UniProt P31389)
# Protein sequences, listed by entry. Tags and fused reporters are not part of them.
# UniProt P31389, whole entry, looked up: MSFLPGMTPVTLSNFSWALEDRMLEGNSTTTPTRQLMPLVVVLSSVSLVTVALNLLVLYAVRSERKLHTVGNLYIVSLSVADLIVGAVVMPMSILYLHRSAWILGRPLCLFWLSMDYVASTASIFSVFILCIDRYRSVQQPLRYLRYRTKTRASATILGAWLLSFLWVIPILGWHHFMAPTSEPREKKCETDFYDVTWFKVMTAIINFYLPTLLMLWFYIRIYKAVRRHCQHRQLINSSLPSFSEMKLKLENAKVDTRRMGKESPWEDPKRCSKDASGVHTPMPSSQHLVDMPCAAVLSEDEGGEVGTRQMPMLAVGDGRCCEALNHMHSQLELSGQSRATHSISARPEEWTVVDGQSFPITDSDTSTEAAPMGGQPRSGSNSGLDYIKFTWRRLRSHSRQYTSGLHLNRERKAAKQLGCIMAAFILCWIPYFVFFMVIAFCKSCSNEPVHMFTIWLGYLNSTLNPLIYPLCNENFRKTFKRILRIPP
smiles,measurement,value
O=C(c1cc2ccccc2[nH]1)N1CCN(CCN2CCC(Nc3nc4ccccc4n3Cc3ccc(F)cc3)CC2)CC1,pA2,8.42

# From ChEMBL document CHEMBL1909509, “Mepyramine-JNJ7777120-hybrid compounds show high affinity to hH(1)R, but low affinity to hH(4)R” (Bioorg Med Chem Lett, 2011)
